Assay results published in PMC10791108 (Journal of Enzyme Inhibition and Medicinal Chemistry, 2024).

By UniProt entry, the sequences of proteins in these tests, tags left out. Where a name states a change or a piece, a line headed by the entry shows the natural chain unless it says otherwise.
UniProt P11388: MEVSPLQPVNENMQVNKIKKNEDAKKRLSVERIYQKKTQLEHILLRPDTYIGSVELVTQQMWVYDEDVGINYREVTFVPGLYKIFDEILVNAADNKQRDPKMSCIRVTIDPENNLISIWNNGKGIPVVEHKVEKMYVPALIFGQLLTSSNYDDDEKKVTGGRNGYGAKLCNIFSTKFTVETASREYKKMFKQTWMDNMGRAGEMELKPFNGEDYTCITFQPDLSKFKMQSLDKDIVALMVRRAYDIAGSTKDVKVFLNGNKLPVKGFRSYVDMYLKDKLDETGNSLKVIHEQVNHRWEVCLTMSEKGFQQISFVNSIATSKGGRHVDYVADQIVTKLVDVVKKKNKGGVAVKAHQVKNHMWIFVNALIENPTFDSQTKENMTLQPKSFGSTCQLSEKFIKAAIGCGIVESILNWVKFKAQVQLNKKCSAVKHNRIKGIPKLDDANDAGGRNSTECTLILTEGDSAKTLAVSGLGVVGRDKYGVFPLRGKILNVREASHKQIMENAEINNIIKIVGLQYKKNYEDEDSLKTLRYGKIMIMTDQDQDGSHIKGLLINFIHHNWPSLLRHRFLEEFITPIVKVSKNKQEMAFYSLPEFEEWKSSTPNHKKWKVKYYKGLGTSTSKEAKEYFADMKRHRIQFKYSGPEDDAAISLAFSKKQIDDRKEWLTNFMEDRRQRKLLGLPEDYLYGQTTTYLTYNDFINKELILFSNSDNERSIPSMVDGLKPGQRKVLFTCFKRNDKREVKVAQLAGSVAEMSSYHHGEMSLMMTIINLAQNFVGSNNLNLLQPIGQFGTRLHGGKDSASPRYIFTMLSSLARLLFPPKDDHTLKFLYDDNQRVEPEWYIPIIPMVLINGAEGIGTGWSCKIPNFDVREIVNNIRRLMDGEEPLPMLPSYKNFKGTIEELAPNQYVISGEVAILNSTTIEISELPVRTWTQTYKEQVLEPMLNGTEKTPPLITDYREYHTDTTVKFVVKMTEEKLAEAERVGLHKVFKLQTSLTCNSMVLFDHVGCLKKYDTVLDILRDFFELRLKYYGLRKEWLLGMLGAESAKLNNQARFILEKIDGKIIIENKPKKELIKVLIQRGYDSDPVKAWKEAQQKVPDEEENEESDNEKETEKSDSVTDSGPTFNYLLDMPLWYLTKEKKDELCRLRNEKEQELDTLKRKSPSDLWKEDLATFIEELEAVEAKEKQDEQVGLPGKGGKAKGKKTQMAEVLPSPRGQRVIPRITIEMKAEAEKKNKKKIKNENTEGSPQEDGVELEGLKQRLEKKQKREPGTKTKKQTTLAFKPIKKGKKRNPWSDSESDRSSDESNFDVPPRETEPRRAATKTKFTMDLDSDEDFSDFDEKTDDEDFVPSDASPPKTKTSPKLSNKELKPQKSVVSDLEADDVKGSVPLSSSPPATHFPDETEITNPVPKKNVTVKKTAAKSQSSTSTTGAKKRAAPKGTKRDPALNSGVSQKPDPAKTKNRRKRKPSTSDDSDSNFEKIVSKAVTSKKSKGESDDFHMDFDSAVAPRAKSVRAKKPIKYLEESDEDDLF

Biological target: Topo IIα (Homo sapiens, UniProt P11388)
Assay: pBR322 DNA relaxation assay
Format: biochemical
Conditions: gel, reference at 100 µM

Inhibition of Topo IIα-mediated pBR322 relaxation: completely inhibited relaxation activity
SMILES: COc1cc([C@@H]2c3cc4c(cc3[C@@H](O[C@@H]3O[C@@H]5CO[C@@H](C)O[C@H]5[C@H](O)[C@H]3O)[C@H]3COC(=O)[C@H]23)OCO4)cc(OC)c1O [Etoposide, etoposide, reference compound]
